These are literature values, as cited in patent publication US7138231B2 (priority 2000, dated 2006).

For the data set, the system named is HIV-1. Particulars: cited from earlier work.

`Cc1c(O)cccc1C(=O)N[C@@H](CSc1ccccc1)[C@H](O)CN1C[C@H]2CCCC[C@H]2C[C@H]1C(=O)NC(C)(C)C` [nelfinavir]: the “effects when combined with other antiretroviral drugs” value is on record as “additive-to-synergistic effects”. As to `CC(C)(C)NC(=O)[C@@H]1C[C@@H]2CCCC[C@@H]2CN1C[C@@H](O)[C@H](Cc1ccccc1)NC(=O)[C@H](CC(N)=O)NC(=O)c1ccc2ccccc2n1` [saquinavir], the IC90 (read-out: 90% inhibitory concentration (IC90)) was 6 nM.
